Patent US20240300941A1, “HPK1 INHIBITORS, PREPARATION METHOD AND APPLICATION THEREOF” (ZHUHAI YUFAN BIOTECHNOLOGIES CO., LTD., priority 2018, published 2024)

Protein sequences, listed by entry. Tags and fused reporters are not part of them.
UniProt Q92918, whole entry: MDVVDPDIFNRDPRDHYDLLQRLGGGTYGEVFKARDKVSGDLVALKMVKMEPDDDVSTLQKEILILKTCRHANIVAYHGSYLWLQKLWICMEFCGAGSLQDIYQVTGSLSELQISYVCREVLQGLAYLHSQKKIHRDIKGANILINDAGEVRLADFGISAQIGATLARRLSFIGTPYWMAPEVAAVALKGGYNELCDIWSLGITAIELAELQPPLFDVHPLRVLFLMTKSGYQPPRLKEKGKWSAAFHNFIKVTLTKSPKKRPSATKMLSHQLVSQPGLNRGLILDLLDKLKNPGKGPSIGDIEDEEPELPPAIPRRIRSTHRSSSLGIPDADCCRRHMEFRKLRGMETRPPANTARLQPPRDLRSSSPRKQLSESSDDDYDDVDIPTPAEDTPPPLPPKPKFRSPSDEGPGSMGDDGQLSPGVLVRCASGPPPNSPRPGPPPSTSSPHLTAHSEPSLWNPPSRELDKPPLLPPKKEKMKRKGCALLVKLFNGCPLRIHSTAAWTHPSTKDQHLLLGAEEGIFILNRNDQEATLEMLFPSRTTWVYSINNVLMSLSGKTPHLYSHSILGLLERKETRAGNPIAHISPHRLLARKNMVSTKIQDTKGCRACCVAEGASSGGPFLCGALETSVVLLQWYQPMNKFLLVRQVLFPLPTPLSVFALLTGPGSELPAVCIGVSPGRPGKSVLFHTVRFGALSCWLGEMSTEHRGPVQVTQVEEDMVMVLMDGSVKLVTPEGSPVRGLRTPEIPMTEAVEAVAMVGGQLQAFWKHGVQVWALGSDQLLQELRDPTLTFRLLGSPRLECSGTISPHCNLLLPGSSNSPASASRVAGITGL

Assays:
HPK1 = HPK1 (Homo sapiens (Human), UniProt Q92918); assay: HPK1 ADP-Glo enzyme assay; conditions: HPK1 protein 5 nM, MBP and ATP substrate, ADP-Glo readout
[1] = system: pSLP-76(Ser376) in Jurkat E6-1 cells; assay: Jurkat E6-1 pSLP-76(Ser376) HTRF experiment; conditions: 4 hours compound incubation, anti-human CD3 antibody 20 minutes, Phospho-SLP-76 / SLP-76 HTRF
Experimental: Jurkat E6-1 cells were purchased from ATCC (Cat. No. TIB-152TM) and cultured overnight with RPMI 1640 containing 0.5% o FBS, after that 20 μL (10^7 cells/mL) cells were added to the experimental plates. Then the test compounds were diluted by three-fold gradient, and 10 different concentrations were prepared, and 5 μl of each was added to the experimental plate, and incubated for 4 hours in 37° C. incubator containing 5% CO2. Then 5 ul of 6× anti-human CD3 antibody (Biolegend, Cat. No. 300432) was added and incubated for 20 minutes in 37° C. incubator containing 5% CO2. Finally, the Phospho-SLP-76 and SLP-76 results were determined using the Cisbio Phospho-SLP-76 and SLP-76 HTRF assay kits (items: 63ADK076PEH and 63ADK077PEH, respectively). Based on the results, the IC50 of the compound is calculated.

`CC1CC(O)(C#Cc2cccc(COc3cc(-c4cnc(C5CCN(C)CC5)s4)cnc3N)c2)C1` (centres unmarked) showed an IC50 (HPK1) of less than 100 nM.
Molecule `CN1CCC(c2ncc(-c3cnc(N)c(OCc4cccc(C#CC5(O)CC5)c4)c3)s2)CC1` has an IC50 [1] of less than 1000 nM.
